From patent publication EP4843988A1, “PYRIDOTHIOPHENE-2-CARBOXYLIC ACID DERIVATIVE, PREPARATION METHOD THEREFOR AND USE THEREOF” (dated 2026)

By UniProt entry, the sequences of proteins in these tests, tags left out.
UniProt P10635, whole entry: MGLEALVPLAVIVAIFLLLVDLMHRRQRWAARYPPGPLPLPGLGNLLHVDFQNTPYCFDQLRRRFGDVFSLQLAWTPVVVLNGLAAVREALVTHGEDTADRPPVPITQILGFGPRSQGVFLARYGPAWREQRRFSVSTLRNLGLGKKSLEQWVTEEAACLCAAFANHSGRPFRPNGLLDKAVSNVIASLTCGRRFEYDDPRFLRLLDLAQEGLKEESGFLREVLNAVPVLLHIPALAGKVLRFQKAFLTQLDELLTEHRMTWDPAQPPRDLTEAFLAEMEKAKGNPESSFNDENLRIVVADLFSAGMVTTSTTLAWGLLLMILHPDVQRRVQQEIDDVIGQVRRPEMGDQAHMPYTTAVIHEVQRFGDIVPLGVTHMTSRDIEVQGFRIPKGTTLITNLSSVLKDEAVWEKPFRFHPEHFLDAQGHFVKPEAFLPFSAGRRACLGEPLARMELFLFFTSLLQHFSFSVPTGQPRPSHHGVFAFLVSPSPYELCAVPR
UniProt P33261, whole entry: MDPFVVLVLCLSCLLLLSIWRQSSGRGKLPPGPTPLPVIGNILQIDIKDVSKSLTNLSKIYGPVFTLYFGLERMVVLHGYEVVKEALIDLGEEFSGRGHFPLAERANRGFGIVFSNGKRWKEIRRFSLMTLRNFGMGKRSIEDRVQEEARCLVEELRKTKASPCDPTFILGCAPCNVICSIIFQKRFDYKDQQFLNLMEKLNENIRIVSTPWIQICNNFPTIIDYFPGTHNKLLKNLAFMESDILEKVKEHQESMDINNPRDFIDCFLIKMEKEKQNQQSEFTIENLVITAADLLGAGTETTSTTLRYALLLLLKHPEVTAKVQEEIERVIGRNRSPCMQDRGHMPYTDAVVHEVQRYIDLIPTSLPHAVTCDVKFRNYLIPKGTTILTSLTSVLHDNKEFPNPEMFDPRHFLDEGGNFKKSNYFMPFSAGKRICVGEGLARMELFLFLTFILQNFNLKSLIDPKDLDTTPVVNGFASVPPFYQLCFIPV
UniProt P11712, whole entry: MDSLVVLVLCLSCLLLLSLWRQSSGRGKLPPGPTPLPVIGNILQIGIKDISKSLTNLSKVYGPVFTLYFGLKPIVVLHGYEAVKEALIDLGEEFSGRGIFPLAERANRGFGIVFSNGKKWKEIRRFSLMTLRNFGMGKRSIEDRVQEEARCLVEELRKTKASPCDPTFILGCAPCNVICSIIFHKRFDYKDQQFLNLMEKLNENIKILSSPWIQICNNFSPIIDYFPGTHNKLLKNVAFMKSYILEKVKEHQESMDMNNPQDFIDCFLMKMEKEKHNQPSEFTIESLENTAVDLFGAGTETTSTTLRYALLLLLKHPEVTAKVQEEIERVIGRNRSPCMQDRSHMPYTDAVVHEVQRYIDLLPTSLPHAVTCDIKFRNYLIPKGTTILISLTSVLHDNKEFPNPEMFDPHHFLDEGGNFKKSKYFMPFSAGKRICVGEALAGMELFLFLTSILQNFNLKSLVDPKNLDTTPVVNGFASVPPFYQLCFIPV
UniProt P05177, whole entry: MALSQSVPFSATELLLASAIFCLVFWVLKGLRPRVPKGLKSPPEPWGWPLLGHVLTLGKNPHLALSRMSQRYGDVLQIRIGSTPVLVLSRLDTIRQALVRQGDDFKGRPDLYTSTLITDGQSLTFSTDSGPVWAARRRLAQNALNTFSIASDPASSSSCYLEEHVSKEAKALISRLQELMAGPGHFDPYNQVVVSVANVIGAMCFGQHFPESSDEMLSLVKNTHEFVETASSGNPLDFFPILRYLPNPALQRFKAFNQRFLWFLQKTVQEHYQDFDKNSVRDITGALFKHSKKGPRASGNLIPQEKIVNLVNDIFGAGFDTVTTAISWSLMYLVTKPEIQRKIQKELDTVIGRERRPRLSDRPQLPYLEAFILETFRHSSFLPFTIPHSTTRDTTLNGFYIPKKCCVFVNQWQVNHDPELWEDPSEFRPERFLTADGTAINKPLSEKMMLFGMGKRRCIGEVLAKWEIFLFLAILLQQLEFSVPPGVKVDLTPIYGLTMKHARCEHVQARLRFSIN

Legend:
[1] = target: BCKDK protein in HEK293 cells (Homo sapiens, UniProt O14874); assay: Inhibitory effect of compounds on BCKDK protein in HEK293 cells (Phospho-BCKDH-E1α (Ser293) signal); details: compound treatment 4 h at 37 °C, Phospho-BCKDH-E1α (Ser293) detection
CYP2D6 = CYP2D6 (Homo sapiens, UniProt P10635); assay: Inhibitory activity against human CYP450 in human liver microsomes: CYP2D6; details: read-out: Inhibitory activity IC50 against CYP2D6; human liver microsomes 0.2 mg/mL, substrate Bufuralol hydrochloride 5 µM
CYP2C19 = CYP2C19 (Homo sapiens, UniProt P33261); assay: Inhibitory activity against human CYP450 in human liver microsomes: CYP2C19; details: read-out: Inhibitory activity IC50 against CYP2C19; human liver microsomes 0.2 mg/mL, substrate S-mephenytoin 35 µM
CYP2C9 = CYP2C9 (Homo sapiens, UniProt P11712); assay: Inhibitory activity against human CYP450 in human liver microsomes: CYP2C9; details: read-out: Inhibitory activity IC50 against CYP2C9; human liver microsomes 0.2 mg/mL, substrate Diclofenac sodium 10 µM
CYP1A2 = CYP1A2 (Homo sapiens, UniProt P05177); assay: Inhibitory activity against human CYP450 in human liver microsomes: CYP1A2; details: read-out: Inhibitory activity IC50 against CYP1A2; human liver microsomes 0.2 mg/mL, substrate Phenacetin 30 µM
CYP3A = assay: Inhibitory activity against human CYP450 in human liver microsomes: CYP3A; details: read-out: Inhibitory activity IC50 against CYP3A; human liver microsomes 0.2 mg/mL, substrate Midazolam 3 µM
[2] = In vivo pharmacokinetic experiment in rats; details: oral (intragastric) administration, 20 mpk, mean of two animals
[3] = Stability test of compounds in human hepatocytes; details: 1 µM test compound, 0.5 × 10^6 cells/mL, 0-120 min
[4] = Stability test of compounds in rat hepatocytes; details: 1 µM test compound, 0.5 × 10^6 cells/mL, 0-120 min
[5] = In vivo pharmacokinetic experiment in dogs; details: dogs (beagles), oral (intragastric) administration, 3 mpk, mean of two animals

## CCc1c(F)c(F)cc(-c2c(C(=O)O)sc3cc(F)cnc23)c1F
[1]
  IC50: 2.83 µM

## Cc1c(F)c(-c2c(C(=O)O)sc3cc(Cl)cnc23)cc(F)c1Cl
[1]
  IC50: 4.13 µM

## O=C(O)c1sc2cc(Cl)cnc2c1-c1c(Cl)cc(F)c(OC(F)F)c1F
[1]
  IC50: 0.56 µM

## COc1c(F)c(F)cc(-c2c(C(=O)O)sc3cc(F)ccc23)c1F
CYP2D6
  IC50: > 30 µM
CYP2C19
  IC50: > 30 µM
CYP2C9
  IC50: 1.09 µM
CYP1A2
  IC50: > 30 µM
CYP3A
  IC50: > 30 µM

## COc1c(F)cc(Cl)c(-c2c(C(=O)O)sc3cc(Cl)cnc23)c1F (single isomer, unassigned)
[1]
  IC50: 0.96 µM

## [2H]C([2H])([2H])Oc1c(F)cc(Cl)c(-c2c(C(=O)O)sc3cc(Cl)cnc23)c1F
[1]
  IC50: 0.89 µM

## CCc1c(F)c(F)cc(-c2c(C(=O)O)sc3cc(Cl)cnc23)c1F
[1]
  IC50: 1.36 µM

## COc1c(F)c(F)cc(-c2c(C(=O)O)sc3cc(Cl)cnc23)c1F
[1]
  IC50: 5.66 µM

## COc1c(F)c(F)cc(-c2c(C(=O)O)sc3cc(F)cnc23)c1F
[1]
  IC50: 9.66 µM

## COc1c(F)cc(Cl)c(-c2c(C(=O)O)sc3cc(F)cnc23)c1F
[2]
  AUClast: 1297.444 µg·h/mL
  Cmax: 77900 ng/mL
[1]
  IC50: 1.56 µM
CYP2D6
  IC50: > 30 µM
CYP2C19
  IC50: > 30 µM
CYP2C9
  IC50: > 30 µM
[3]
  Metabolic clearance rate CLint in hepatocytes, Human: 2.38 µL/min/10^6 cells
CYP1A2
  IC50: > 30 µM
[4]
  Metabolic clearance rate CLint in hepatocytes, Rat: 20.18 µL/min/10^6 cells
[5]
  AUClast: 102.182 µg·h/mL
  Cmax: 18250 ng/mL
  T1/2: 5.77 h
CYP3A
  IC50: > 30 µM

## O=C(O)c1sc2cc(F)cnc2c1-c1c(Cl)cc(F)c(OC(F)F)c1F
[1]
  IC50: 4.36 µM

## Cc1c(F)c(F)cc(-c2c(C(=O)O)sc3cc(Cl)cnc23)c1F
[1]
  IC50: 4.72 µM

## CSc1c(F)c(F)cc(-c2c(C(=O)O)sc3cc(F)cnc23)c1F
[1]
  IC50: 2.61 µM

## O=C(O)c1sc2cc(F)cnc2c1-c1cc(F)c(F)c(OC(F)F)c1F
[1]
  IC50: 5.92 µM

## O=C(O)c1sc2cc(Cl)cnc2c1-c1cc(F)c(F)c(OC(F)F)c1F
[1]
  IC50: 3.57 µM
